From patent publication US8277810B2, “Antagonist anti-CD40 antibodies” (Novartis Vaccines & Diagnostics, Inc., priority 2003, dated 2012)

Experiments:
[1] = tested on: ovarian cancer cell line SKOV3i.p.1; assay: Unstaged (prophylactic) orthotopic murine model of ovarian cancer; format: in vivo, nude mice; conditions: i.p. once a week, 6 doses; 54 days after inoculation
Description: 1. Tumor cells were inoculated intraperitoneally (i.p.) into T-cell deficient nude mice at 2×10^6 cells per mouse. […] Antibody was dosed once a week for a total of 6 doses. Percent survival was calculated over time.

[2] = cancer patients, cited from earlier work

Substance	percent survival [1]	average (% CV) AUC ([2]; 0.3 MU SC)	average (% CV) AUC ([2]; 1 MU SC)	average (% CV) AUC ([2]; 3 MU SC)
Herceptin®: anti-HER2 monoclonal antibody (Genentech)	not significantly greater than that observed for the untreated control group	–	–	–
recombinant human native IL-2: recombinant human native IL-2 from published literature (Gustavson 1998)	–	120 (38) U*hr/ml	177 (36) U*hr/ml	359 (46) U*hr/ml

Like-named read-outs stand apart in the source and are kept apart here.
